Experiment [1] deals with T1, hERG channel (Homo sapiens, UniProt Q12809).
T1 construct: host or cells: CHO cre/lox hERG
As to the kind of experiment: Automated patch clamp (Nanion Patchliner) of hERG current in CHO-hERG cells with K+ solutions. The following applies: tail current at +40 mV, Hill fit, 22°C. Format: cell-based. (Patch clamp records ionic current or voltage across a cell membrane.)

Protein sequences, listed by entry. Tags and fused reporters are not part of them. Lines headed by an entry give the natural chain unless they say otherwise; changes in a name come on top.
UniProt Q12809: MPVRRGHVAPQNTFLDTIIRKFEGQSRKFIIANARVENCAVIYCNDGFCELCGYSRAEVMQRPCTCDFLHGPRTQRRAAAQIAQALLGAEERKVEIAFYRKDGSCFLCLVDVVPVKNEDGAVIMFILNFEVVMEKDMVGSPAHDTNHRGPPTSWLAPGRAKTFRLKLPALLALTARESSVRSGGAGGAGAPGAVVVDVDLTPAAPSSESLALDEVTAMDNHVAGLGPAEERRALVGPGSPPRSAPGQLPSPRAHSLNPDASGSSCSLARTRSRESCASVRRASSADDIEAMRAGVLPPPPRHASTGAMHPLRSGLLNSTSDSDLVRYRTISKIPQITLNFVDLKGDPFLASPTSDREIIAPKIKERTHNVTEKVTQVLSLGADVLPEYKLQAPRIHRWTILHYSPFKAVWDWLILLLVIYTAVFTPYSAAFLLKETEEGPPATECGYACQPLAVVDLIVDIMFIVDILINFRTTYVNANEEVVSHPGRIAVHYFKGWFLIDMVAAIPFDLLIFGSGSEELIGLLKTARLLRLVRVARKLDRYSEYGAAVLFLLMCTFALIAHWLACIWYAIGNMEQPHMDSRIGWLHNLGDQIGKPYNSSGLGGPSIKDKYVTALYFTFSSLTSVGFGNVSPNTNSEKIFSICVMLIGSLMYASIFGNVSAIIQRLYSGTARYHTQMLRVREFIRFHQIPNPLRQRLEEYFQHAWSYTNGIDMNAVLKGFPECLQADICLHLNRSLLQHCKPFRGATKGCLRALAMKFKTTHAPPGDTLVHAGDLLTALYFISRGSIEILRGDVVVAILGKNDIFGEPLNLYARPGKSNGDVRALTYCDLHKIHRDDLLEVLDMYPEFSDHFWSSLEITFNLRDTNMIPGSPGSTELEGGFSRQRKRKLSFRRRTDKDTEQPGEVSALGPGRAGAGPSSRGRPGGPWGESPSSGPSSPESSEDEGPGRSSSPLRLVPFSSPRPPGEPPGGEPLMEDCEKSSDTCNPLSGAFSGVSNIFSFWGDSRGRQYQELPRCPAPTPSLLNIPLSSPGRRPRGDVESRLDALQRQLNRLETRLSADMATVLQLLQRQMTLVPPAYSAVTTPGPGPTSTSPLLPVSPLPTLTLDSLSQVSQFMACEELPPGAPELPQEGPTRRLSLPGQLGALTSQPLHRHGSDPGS

For experiment [2], the target named is T1, hERG channel. As to the kind of experiment: Automated patch clamp (Nanion Patchliner) of hERG current in CHO-hERG cells with equimolar Cs+ solutions. Format: cell-based. The following applies: maximal tail current at +40 mV, Hill fit, 22°C.
Setting [3] is: printed as log(IC50) with negative sign, read-out: Log(IC50) (converted).

Each structure is given as a SMILES string.

Usually IC50 stands for the concentration that inhibits the measured activity by half.

`CNCCCN1c2ccccc2CCc2ccccc21` [Desipramine]: the IC50 was 6.31 µM on hERG channel [1] (setting [3]), 6.9 µM at hERG channel [1] (read-out: IC50 Conc.), 33.9 µM at hERG channel [2] (read-out: IC50 Conc.) and 39.8 µM at hERG channel [2] (setting [3]).
